Test results: EP0970046B1, “N-HYDROXY-2-(ALKYL, ARYL, OR HETEROARYL SULFANYL, SULFINYL OR SULFONYL)-3-SUBSTITUTED ALKYL, ARYL OR HETEROARYLAMIDES AS MATRIX METALLOPROTEINASE INHIBITORS” (Wyeth Holdings Corporation, priority 1997, dated 1998)

Columns and labels:
MMP 13 = MMP 13 (Homo sapiens, UniProt P45452); experiment: MMP 13 inhibition (IC50 / manual assay; method not described); type: biochemical; conditions: read-out: MMP 13 IC 50
MMP 1 = target: T1, MMP 1 (Homo sapiens, UniProt P03956); experiment: In Vitro Collagenase Assay; type: biochemical; conditions: human recombinant fibroblast collagenase; read-out: MMP 1 IC 50
T1 construct: human recombinant fibroblast collagenase (truncated, mw= 18,828, WAR, Radnor)
T1 sequence (P03956 100-269 limits assumed): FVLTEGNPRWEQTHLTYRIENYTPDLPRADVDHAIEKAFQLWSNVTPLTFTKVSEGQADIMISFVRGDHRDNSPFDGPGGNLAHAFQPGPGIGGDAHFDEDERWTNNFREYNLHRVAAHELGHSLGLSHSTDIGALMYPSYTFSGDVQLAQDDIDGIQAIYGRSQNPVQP

| SMILES | IC50 (MMP 13) [nM] | IC50 (MMP 1) [nM] |
| --- | --- | --- |
| CCCCC(Cc1cccnc1)(C(=O)NO)S(=O)(=O)c1ccc(OC)cc1 (stereo not drawn) [Example 70, 2-(4-Methoxy-benzenesulfonyl)-2-pyridin-3-ylmethyl-hexanoic acid hydroxyamide] | 127 |  |
| CCCCOc1ccc(S(=O)(=O)C2(C(=O)NO)CCN(Cc3ccc(OC)cc3)CC2)cc1 [Example 104, 4-(4-n-Butoxy-benzenesulfonyl)-1-(4-methoxy-benzyl)-piperidine-4-carboxylic acid hydroxyamide] |  | 2610 |
| COc1ccc(S(=O)(=O)C(Cc2ccc3ccccc3c2)C(=O)NO)cc1 (stereo not drawn) [Example 40, N-Hydroxy-2-(4-methoxy-benzenesulfonyl)-3-naphthalen-2-yl-propionamide] |  | 583 |
